The structures appear in SMILES notation. The list shows a part of the results, in another mix than the full data. Some tests of the compounds listed are not included; inactive here does not mean inactive elsewhere. Activity calls are given as the source filed them.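 The calls were made as follows: active = inhibition above the mean of compounds lying between control limits plus 3 SD, set per campaign (cut at about 8.5% in these data); inactive = the rest.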

Amino acid sequences for entries named in this document (tags omitted). Residues count along the entry.
UniProt P78536, 215-824 limits assumed: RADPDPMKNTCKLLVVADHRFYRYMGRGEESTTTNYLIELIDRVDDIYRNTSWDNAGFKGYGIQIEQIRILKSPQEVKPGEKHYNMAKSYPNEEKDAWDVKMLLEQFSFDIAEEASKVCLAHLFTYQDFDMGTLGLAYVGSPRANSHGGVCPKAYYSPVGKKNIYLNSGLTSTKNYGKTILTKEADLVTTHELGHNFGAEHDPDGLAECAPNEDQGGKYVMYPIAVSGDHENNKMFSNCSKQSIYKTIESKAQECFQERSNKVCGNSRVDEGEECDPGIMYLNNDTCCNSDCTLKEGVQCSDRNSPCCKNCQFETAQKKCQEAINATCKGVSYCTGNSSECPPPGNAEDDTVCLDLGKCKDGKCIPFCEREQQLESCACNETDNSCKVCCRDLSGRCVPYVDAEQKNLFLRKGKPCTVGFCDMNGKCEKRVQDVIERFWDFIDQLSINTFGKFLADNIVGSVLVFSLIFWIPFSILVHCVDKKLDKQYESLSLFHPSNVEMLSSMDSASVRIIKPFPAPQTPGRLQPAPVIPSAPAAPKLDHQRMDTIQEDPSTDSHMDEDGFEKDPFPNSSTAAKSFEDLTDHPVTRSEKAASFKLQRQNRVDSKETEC

The target in the test is Disintegrin and metalloproteinase domain-containing protein 17 (Homo sapiens) (UniProt P78536). The test can be described thus: inhibition of ADAM17 peptide cleavage – biochemical, QFRET, primary screen (AID 720648).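 Also: 0% = DMSO-only wells as the low control.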 Particulars: recombinant ADAM17, EDANS/DABCYL FRET peptide cleavage; at 6.95 µM; hits give high values.
As to `CN(C)c1cccc(C(=O)NCC2(N(C)C)CCCCC2)c1`, the inhibition is inactive: -11.9%. Next, `O=C(OCCN1CCCC1)C(O)(c1ccccc1)c1ccccc1`: inactive: -3.35%; `CC(C)Oc1ccc(C(=O)NCC2(N(C)C)CCCCC2)cc1`: inactive: -10.1%. Under `COc1ccc(Br)c(C(=O)NCC2(N3CCCCC3)CCCCC2)c1` stands inactive: -4.53%. In the case of `C=C(C)C#CC(O)(C(=O)OC1CCN(C)CC1)c1ccccc1` (stereo unspecified), the inhibition was inactive: 1.32%. `O=C(OC1CN2CCC1CC2)C(CO)(c1ccccc1)c1ccccc1` (stereo unspecified): the inhibition is inactive: -3.54%. For `O=C(NCC1(N2CCCCC2)CCCCC1)c1cccc(Cl)c1`, the inhibition was inactive: 2.37%. `COc1ccc(Cl)cc1C(=O)NCC1(N(C)C)CCCCC1`: the inhibition is inactive: 0.69%. Next, `COc1cccc(C(=O)NCC2(N3CCCCC3)CCCCC2)c1`: inactive: -6.48%; `COc1cc(C(=O)NCC2(N(C)C)CCCCC2)c([N+](=O)[O-])cc1OC`: inactive: -7.08%; `CN(C)C1(CNC(=O)c2ccc(Br)cc2)CCCCC1`: inactive: -5.6%. Next, `O=C(NCC1(N2CCCCC2)CCCCC1)c1cccc(Br)c1`: inactive: -2.69%; `CCN1CCCC(OC(=O)C2(O)c3ccccc3C=Cc3ccccc32)C1` (stereo unspecified): inactive: -4.75%. Under `Cc1cc(C(=O)NCC2(N3CCCCC3)CCCCC2)ccc1[N+](=O)[O-]` stands inactive: -0.94%. For `COc1ccc(C(=O)NCC2(N(C)C)CCCCC2)cc1`, the inhibition is inactive: 1.38%.

In the case of `O=C(NCC1(N2CCCCC2)CCCCC1)c1cc(F)c(F)cc1Cl`, the inhibition was inactive: -1.87%. For `C=CCN1CCN(CCOC(=O)C(O)(c2ccccc2)c2ccccc2)CC1`, the inhibition is inactive: -0.88%. Under `CN(C)c1ccc(C(=O)NCC2(N(C)C)CCCCC2)cc1` stands inactive: 0.24%; under `CN(C)C1CCCC1OC(=O)C(O)(c1ccccc1)c1ccccc1` (stereo unspecified), inactive: -0.89%; under `Cc1ccccc1C(=O)NCC1(N2CCCCC2)CCCCC1`, inactive: 0.76%.

`Cc1ccc(C(=O)NCC2(N3CCCCC3)CCCCC2)cc1`: the inhibition is inactive: 0.25%. Consider `CC(C)N1C(=O)CC2(CCN(CCOC(=O)C(O)(c3ccccc3)c3ccccc3)CC2)C1=O`, for which the inhibition is inactive: -8.88%. Next, `COc1cc(SC)ccc1C(=O)NCC1(N(C)C)CCCCC1`: inactive: -2.71%. Under `CCN(CC)CC(C)C(C)OC(=O)C(O)(c1ccccc1)c1ccccc1` (stereo unspecified) stands inactive: -2.5%. Next, `CN1[C@@H]2CC[C@H]1CC(OC(=O)C(O)(c1ccccc1)c1ccccc1)C2` (stereo partly specified): inactive: -2.87%; `O=C(NCC1(N2CCCCC2)CCCCC1)c1cc([N+](=O)[O-])ccc1Cl`: inactive: -3.03%.

The record behind these values is PubChem BioAssay AID720648 (The Scripps Research Institute Molecular Screening Center, 2013).
